{"source": "PubChem BioAssay AID1700", "about": "(The Scripps Research Institute Molecular Screening Center, 2009)", "note": "This is a selection; strong and weak results do not stand in their true shares. Activity calls are given as the source filed them.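 How the source made its calls: active means inhibition above a per-plate limit of that plate's mean compound inhibition plus 3 SD (cut at about 60% in these data); inactive means the rest.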", "data": [{"assay": "KLF5 expression inhibitors, primary screen, DLD-1 cells, luminescence (AID 1700);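 further: 0% = DMSO wells and 100% = LY294002 at 200 µM; higher means less KLF5 promoter-driven luciferase light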", "details": "DLD-1 KLF5 promoter-luciferase reporter, at 5 µM, hits give high values", "values": [{"smiles": "C(Cc1nn[nH]n1)Cc1nn[nH]n1", "inhibition": "inactive: -5.77%"}, {"smiles": "Nc1ccc([As](=O)(O)c2ccc([N+](=O)[O-])cc2)cc1", "inhibition": "inactive: 2.97%"}, {"smiles": "CN(C)C1(CNC(=O)c2ccc(Cl)c(S(N)(=O)=O)c2)CCCCC1", "inhibition": "inactive: -49.2%"}, {"smiles": "O=P(Nc1ccccn1)(c1ccc(Br)cc1)c1ccc(Br)cc1", "inhibition": "inactive: -16%"}, {"smiles": "O=P(Nc1nc2ccccc2s1)(c1ccccc1)c1ccccc1", "inhibition": "inactive: -2.02%"}, {"smiles": "O=P1(Nc2ncccn2)COc2ccccc2OC1", "inhibition": "inactive: -27.1%"}, {"smiles": "Nc1cccc([As](=O)(O)c2ccccc2)c1", "inhibition": "inactive: -8.47%"}, {"smiles": "Cc1ccc(OCC(=O)OC2CN3CCC2CC3)cc1", "note": "(configuration not stated)", "inhibition": "inactive: -2.24%"}, {"smiles": "O=[As](O)(c1cccs1)c1cccs1", "inhibition": "inactive: -20.7%"}, {"smiles": "O=P1(Nc2ccc(Br)cn2)COc2ccccc2OC1", "inhibition": "inactive: -24.9%"}, {"smiles": "Cc1ccc(C(=O)OC2CN3CCC2CC3)cc1", "note": "(configuration not stated)", "inhibition": "inactive: -32.8%"}, {"smiles": "CC1CCC(C(C)C)C(OP(=O)(Nc2ccccn2)c2ccccc2)C1", "note": "(configuration not stated)", "inhibition": "inactive: -17.3%"}, {"smiles": "Cc1nn(-c2ccccc2)c2c1P(=O)(N1CCOCC1)N(C)C(c1ccccc1)=N2", "note": "(configuration not stated)", "inhibition": "inactive: -21.4%"}, {"smiles": "CN(C)C1(CNC(=O)c2ccc(S(C)(=O)=O)cc2)CCCCC1", "inhibition": "inactive: -9.44%"}, {"smiles": "O=C(/C=C/c1ccccc1)OC1CN2CCC1CC2", "note": "(configuration not stated)", "inhibition": "inactive: -30.3%"}, {"smiles": "CN(C(=O)Cc1ccc(Cl)c(Cl)c1)[C@@H]1CCCC[C@H]1N1CCCC1", "inhibition": "inactive: -32.6%"}, {"smiles": "CC(C)/C=N\\N=C(\\N)N[N+](=O)[O-]", "inhibition": "inactive: -4.26%"}, {"smiles": "CC1(CBr)Cn2c(nc3ccccc3c2=O)S1", "note": "(configuration not stated)", "inhibition": "inactive: -22.7%"}, {"smiles": "O=[As](O)(c1ccccc1Br)c1ccccc1Br", "inhibition": "inactive: -27.6%"}, {"smiles": "CCOP(=O)(NC(=NC(C)c1ccccc1)NC(C)c1ccccc1)OCC", "note": "(configuration not stated)", "inhibition": "inactive: -10.7%"}, {"smiles": "CCC1=CC2Cc3nc4ccc(Cl)cc4c(N)c3C(C1)C2", "note": "(configuration not stated)", "inhibition": "inactive: -9.21%"}, {"smiles": "O=P1(Nc2ccccn2)COc2ccccc2OC1", "inhibition": "inactive: -21.3%"}, {"smiles": "CCOP(=O)(Nc1ccc(C)cn1)OCC", "inhibition": "inactive: -20.4%"}, {"smiles": "CC(C)(C)C(=O)NC(Sc1ncccn1)C(Cl)(Cl)Cl", "note": "(configuration not stated)", "inhibition": "inactive: -5.23%"}, {"smiles": "Clc1n[nH]nc1-c1nn[nH][15n]1", "inhibition": "inactive: 8.22%"}, {"smiles": "Cc1ccc(NCCc2c([N+](=O)[O-])cc([N+](=O)[O-])cc2[N+](=O)[O-])cc1", "inhibition": "inactive: -32.5%"}, {"smiles": "Nc1cccc2c([As](=O)(O)O)cccc12", "inhibition": "inactive: -7.85%"}, {"smiles": "CCCOP(=S)(Nc1nc(N)cc(=O)[nH]1)OCCC", "inhibition": "inactive: -33.2%"}, {"smiles": "CCOP(=O)(Nc1cccc2ccccc12)OCC", "inhibition": "inactive: 2.17%"}, {"smiles": "COc1cc(C2NCCC3(OCCO3)C2(C)C)cc(OC)c1OC", "note": "(configuration not stated)", "inhibition": "inactive: -9.44%"}, {"smiles": "O=C(OC1CN2CCC1CC2)c1ccc(Cl)cc1", "note": "(configuration not stated)", "inhibition": "inactive: -28.6%"}, {"smiles": "CS(=O)(=O)c1ccc(Cl)c(NC(=O)COC(=O)C(O)(c2ccccc2)c2ccccc2)c1", "inhibition": "inactive: -10.9%"}, {"smiles": "O=[As](O)(O)c1cccnc1", "inhibition": "inactive: -36%"}, {"smiles": "COc1cc(C(=O)NCC2(N3CCOCC3)CCCCC2)cc(Cl)c1OC(C)C", "inhibition": "inactive: -8.31%"}, {"smiles": "Cc1cccc(OCC(=O)OC2CN3CCC2CC3)c1", "note": "(configuration not stated)", "inhibition": "inactive: 11%"}, {"smiles": "O=[As](O)(c1cccc(O)c1)c1cccc(O)c1", "inhibition": "inactive: -5.83%"}, {"smiles": "CCOP1(=S)c2c(C)nn(CCC#N)c2N=C(c2ccc(F)cc2)N1C", "note": "(configuration not stated)", "inhibition": "inactive: 4.95%"}, {"smiles": "O=[N+]([O-])c1ccc2c(c1)nnn2O", "inhibition": "inactive: -7.48%"}, {"smiles": "O=P(Nc1nccs1)(Oc1ccccc1)Oc1ccccc1", "inhibition": "inactive: -14.4%"}, {"smiles": "O=P(Nc1nccs1)(c1ccccc1)c1nc2ccccc2s1", "note": "(configuration not stated)", "inhibition": "inactive: -7.09%"}, {"smiles": "CCOP1(=S)c2c(C)nn(CCC#N)c2N=C(c2ccccc2F)N1C", "note": "(configuration not stated)", "inhibition": "inactive: -4.15%"}, {"smiles": "CS(=O)(=O)c1cc([N+](=O)[O-])c2no[n+]([O-])c2c1", "inhibition": "inactive: -5.51%"}, {"smiles": "O=C(O)COc1ccc([As](=O)(O)O)cc1[N+](=O)[O-]", "inhibition": "inactive: -38.5%"}, {"smiles": "Nc1ccccc1[As](=O)(O)c1ccccc1", "inhibition": "inactive: -26.2%"}, {"smiles": "ClCCSc1nnc(-c2cccnc2)o1", "inhibition": "inactive: -8.47%"}, {"smiles": "CC(C)c1ccc(OP(=O)(Nc2ccccn2)Oc2ccccc2F)cc1", "note": "(configuration not stated)", "inhibition": "inactive: -24%"}, {"smiles": "O=[N+]([O-])c1cc([N+](=O)[O-])c(-c2ccn[nH]2)s1", "inhibition": "inactive: -9.8%"}, {"smiles": "CC(C)NC(=O)NP(=O)(Oc1ccccc1)Oc1ccccc1", "inhibition": "inactive: 6.86%"}, {"smiles": "CCN(CC)C(=S)SC(NC=O)C(Cl)(Cl)Cl", "note": "(configuration not stated)", "inhibition": "inactive: -17.6%"}, {"smiles": "O=[As](O)(c1ccc(O)cc1)c1ccccc1O", "inhibition": "inactive: -10.8%"}, {"smiles": "C[As](=O)(O)c1cccc(C(=O)O)c1", "inhibition": "inactive: -24.4%"}, {"smiles": "Cc1ccc(OP(=O)(Nc2ccc([N+](=O)[O-])cn2)Oc2ccc(C)cc2)cc1", "inhibition": "inactive: -20.5%"}, {"smiles": "Cc1ccc2nc3c(c(C)c2c1)CC(C(Cl)Cl)S3", "note": "(configuration not stated)", "inhibition": "inactive: -47.5%"}, {"smiles": "COc1ccc(N/C(=N/P(=O)(N2CCOCC2)N2CCOCC2)N2CCOCC2)cc1", "inhibition": "inactive: -31.8%"}, {"smiles": "Cc1c2c(nc3ccccc13)SC(C(Cl)Cl)C2", "note": "(configuration not stated)", "inhibition": "inactive: -3.41%"}, {"smiles": "Cc1cc(=O)[nH]c(N[N+](=O)[O-])n1", "inhibition": "inactive: -21.6%"}, {"smiles": "O=C(OC1CN2CCC1CC2)C12CC3CC(CC(C3)C1)C2", "note": "(configuration not stated)", "inhibition": "inactive: 1.91%"}, {"smiles": "COc1cc(I)ccc1[As](=O)(O)O", "inhibition": "inactive: -9.82%"}, {"smiles": "COc1ccc2nc(NP(=O)(c3ccccc3)c3ccccc3)sc2c1", "inhibition": "inactive: -31%"}, {"smiles": "O=C(OC1CN2CCC1CC2)c1cccc([N+](=O)[O-])c1", "note": "(configuration not stated)", "inhibition": "inactive: -12.2%"}, {"smiles": "CCOC(=O)c1ccc(NC(=O)C(C)(CCl)SC)cc1", "note": "(configuration not stated)", "inhibition": "inactive: -55.8%"}, {"smiles": "CCC(C)N(CC(C)C)C(=S)SC(NC(C)=O)C(Cl)(Cl)Cl", "note": "(configuration not stated)", "inhibition": "inactive: 0.47%"}, {"smiles": "COP1(=S)c2c(C)nn(CCC#N)c2N=C(c2ccc(F)cc2)N1C", "note": "(configuration not stated)", "inhibition": "inactive: 8.11%"}, {"smiles": "O=C(Nc1ccncc1[N+](=O)[O-])c1ccc([N+](=O)[O-])cc1[N+](=O)[O-]", "inhibition": "inactive: -37.6%"}, {"smiles": "O=C(COc1ccccc1)OC1CN2CCC1CC2", "note": "(configuration not stated)", "inhibition": "inactive: 6.62%"}, {"smiles": "CCOC(=O)Nc1cccc([As](=O)(O)O)c1", "inhibition": "inactive: -0.44%"}, {"smiles": "Cc1cc(SC(NC=O)C(Cl)(Cl)Cl)ncn1", "note": "(configuration not stated)", "inhibition": "inactive: -24.9%"}, {"smiles": "O=P(Nc1ccccn1)(c1cccc2ccccc12)c1cccc2ccccc12", "inhibition": "inactive: -17.6%"}, {"smiles": "O=[N+]([O-])c1ccc(Nc2ccc(Oc3ccc([N+](=O)[O-])cc3[N+](=O)[O-])cc2)c([N+](=O)[O-])c1", "inhibition": "inactive: -20.8%"}, {"smiles": "CCOC(=O)Nc1ccc([As](=O)(O)O)c(O)c1", "inhibition": "inactive: -31.8%"}, {"smiles": "Cc1cc(SC(NC(=O)c2ccccc2)C(Cl)(Cl)Cl)nc(C(C)C)n1", "note": "(configuration not stated)", "inhibition": "inactive: -27.5%"}, {"smiles": "CCCCOc1ccc(C(=O)NCC2(N3CCCCC3)CCCCC2)cc1OC", "inhibition": "inactive: -7.33%"}]}]}
